Assay results from patent publication US9012471B2, “Glucose metabolism modulating compounds” (The Trustees of Columbia University in the City of New York, priority 2008, dated 2015).

Assays:
[1] = tested on: Lewis rats; assay: Dopamine content of brain and pancreas tissue by ELISA after TBZ; assay type: in vivo, rat; settings: 1.5 mg/Kg i.v., one hour after injection
Experimental: Anaesthetized rats received an intravenous injection of TBZ and were sacrificed one hour later. Euthanasia was performed by exsanguination of the anesthetized animal. Brain and pancreas were harvested as quickly as possible and frozen at −80° C. until use. Frozen tissue was pulverized in a liquid nitrogen-cooled mortar and extracted in 0.01 N hydrochloric acid (HCl). The tissue extract was centrifuged at 10,000×g at 4° C. to remove debris and the total protein was estimated by reading the absorbance at 280 nm. The concentration of dopamine in the extract was estimated using an ELISA kit from Rocky Mountain Diagnostics (Colorado Springs, Colo.) as per the manufacturer's instructions and normalized to the extract protein concentration.

[2] = tested on: Lewis rats; assay: Plasma insulin and glucagon during IPGTT; assay type: in vivo, rat
Experimental: The fasting blood glucose (BG) levels of the rats were measured using an Accu-Check blood glucose monitoring system (Roche Diagnostics, Sommerville, N.J.). IPGTT was performed in 6-hour fasting anaesthetized animals as previously described ([…], et al. 2001). Briefly, after baseline BG measurements, animals received an I.P. injection of 2 grams of glucose/kg body weight. To minimize stress during the procedure, rats were handled by the same operator during acclimatization and later during weighing and IPGTT. Blood samples (50 μl or 150 μl) were collected at baseline and then again 15, 30, 60, 90, and 120 minutes following I.P. injection of glucose. Blood glucose concentrations were measured immediately on these samples and the remainder processed. Plasma was immediately separated by centrifugation at 3,000×g for 15 minutes and then stored at -80° C. until analysis. Insulin and glucagon concentration measurements in rat plasma were performed by ELISA as per the manufacturer's instructions using kits from Linco Research Inc. (St. Charles, Mich.) and Alpco Diagnostics (Salem, N.H.), respectively. To validate the test, saline injections were performed by the same method. […] The area under the insulin, glucagon and IPGTT glucose concentration×time curve (AUC IPGTT) was calculated by the trapezoidal rule.

COc1cc2c(cc1OC)C1CC(=O)C(CC(C)C)CN1CC2 (stereo not drawn) [TBZ, tetrabenazine]
dopamine content of pancreas [1]: significantly reduced | plasma insulin amounts after glucose challenge relative to vehicle-treated controls ([2]; chronic low doses of TBZ (0.1 mg/Kg body weight/day x 5 days)): significantly greater | plasma insulin amounts after glucose challenge relative to vehicle-treated controls ([2]; single dose of TBZ): significantly greater
